Test results published in patent US7629364B2, “Compounds that abrogate DNA-damage-induced cell cycle G2 checkpoint and/or augment anti-cancer activity of DNA-damaging treatments” (Canbas Co., Ltd., priority 2002, dated 2009).

System: HCT116 cells
Settings: without CBDC004
Experimental: The subG1 population was determined by staining HCT116 with Krishan's solution and analyzed by flow cytometer. The dead cells were identified on the basis of DNA content, and the percentage of cells in sub G1 (% subG1) was calculated.

bleomycin [reference compound]
cytotoxic effect (% subG1) of anti-cancer agent alone: had a cytotoxic effect on HCT116 cells
